Earlier results on 2 substances are cited in PMC8859281.

Chains of the proteins cited; added tags and fusions are not shown. Lines headed by an entry give the natural chain unless they say otherwise; changes in a name come on top.
UniProt P47901: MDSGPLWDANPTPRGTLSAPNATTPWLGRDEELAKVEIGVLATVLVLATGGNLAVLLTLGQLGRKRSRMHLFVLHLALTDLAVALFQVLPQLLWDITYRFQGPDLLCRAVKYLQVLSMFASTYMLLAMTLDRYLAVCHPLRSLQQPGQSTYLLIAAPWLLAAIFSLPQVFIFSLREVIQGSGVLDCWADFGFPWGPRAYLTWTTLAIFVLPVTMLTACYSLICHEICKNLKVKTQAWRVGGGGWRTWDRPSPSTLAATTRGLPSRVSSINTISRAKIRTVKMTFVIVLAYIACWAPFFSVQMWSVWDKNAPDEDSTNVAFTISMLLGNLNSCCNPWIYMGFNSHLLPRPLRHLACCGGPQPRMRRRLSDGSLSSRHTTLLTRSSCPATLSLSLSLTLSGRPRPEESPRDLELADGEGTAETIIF
UniProt P30559: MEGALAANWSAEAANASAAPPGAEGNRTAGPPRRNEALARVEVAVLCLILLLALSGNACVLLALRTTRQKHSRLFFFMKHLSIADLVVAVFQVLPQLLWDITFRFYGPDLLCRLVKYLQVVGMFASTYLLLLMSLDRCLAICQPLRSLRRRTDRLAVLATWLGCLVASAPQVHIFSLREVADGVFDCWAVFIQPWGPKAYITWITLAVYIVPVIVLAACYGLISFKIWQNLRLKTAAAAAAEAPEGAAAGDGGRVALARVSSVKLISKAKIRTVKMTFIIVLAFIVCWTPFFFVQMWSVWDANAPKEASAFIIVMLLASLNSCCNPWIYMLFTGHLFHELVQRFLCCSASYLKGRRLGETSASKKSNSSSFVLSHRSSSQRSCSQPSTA
UniProt P37288, whole entry: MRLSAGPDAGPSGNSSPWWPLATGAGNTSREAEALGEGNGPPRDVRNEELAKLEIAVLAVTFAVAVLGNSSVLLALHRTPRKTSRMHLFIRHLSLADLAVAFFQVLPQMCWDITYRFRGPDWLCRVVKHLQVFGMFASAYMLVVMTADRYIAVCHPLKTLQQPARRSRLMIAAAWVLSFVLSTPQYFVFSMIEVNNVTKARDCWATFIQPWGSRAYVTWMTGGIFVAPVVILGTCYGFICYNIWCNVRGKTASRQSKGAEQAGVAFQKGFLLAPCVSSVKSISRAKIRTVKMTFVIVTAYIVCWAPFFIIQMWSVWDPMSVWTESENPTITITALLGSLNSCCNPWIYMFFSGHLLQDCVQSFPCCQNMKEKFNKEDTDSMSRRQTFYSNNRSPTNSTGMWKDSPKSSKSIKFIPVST

In data set [1] the target is vasopressin V1b receptor (Homo sapiens) (UniProt P47901).
For data set [2], the target named is oxytocin receptor (Homo sapiens) (UniProt P30559).
For data set [3], the target named is vasopressin V1a receptor (Homo sapiens) (UniProt P37288).

As usually defined, the Ki is the equilibrium dissociation constant of an inhibitor or competing ligand from its target. On to conopressin-S (from UniProt P05487), for which the Ki in data set [1] was 0.0083 µM.

For the substance conopressin-T (from UniProt P0DL76), the Ki in data set [2] is 0.108 µM; in data set [3], 0.319 µM.
